## Measured affinities in a library of Ab-14 light chain variants

Reference: Li et al. 2023, doi:10.1038/s41467-023-39022-2. File: FLAb, binding data.

Target peptide (SARS-CoV-2 spike, HR2 region): PDVDLGDISGINAS

Ab-14 is the parent antibody, in scFv form: VH, then the linker GGGGSGGGGSGGGGS, then VL. The heavy chain is unchanged in all variants.
VH: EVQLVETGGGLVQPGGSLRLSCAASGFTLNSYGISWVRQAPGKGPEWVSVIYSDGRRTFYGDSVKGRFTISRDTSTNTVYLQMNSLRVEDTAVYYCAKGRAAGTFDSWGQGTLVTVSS
VL: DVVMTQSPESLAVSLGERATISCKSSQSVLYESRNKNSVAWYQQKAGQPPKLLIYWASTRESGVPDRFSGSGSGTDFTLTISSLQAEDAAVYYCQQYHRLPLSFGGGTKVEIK

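This is the validation round: designs drawn from the data on random variants, tested in the same kind of assay. Group labels follow the data file (Ctrl: baseline library sampled from a position-specific scoring matrix, with some repeated check sequences; GP: Gaussian process model; HC: hill climbing; Gen: genetic algorithm; Gibbs: Gibbs sampling; a sequence that several methods proposed may carry one label only). The assay is AlphaSeq: two haploid yeast populations carry antibody and antigen on their surface. After mating in shaken culture at 30 °C for 16 h, diploids were selected and their barcode pairs sequenced. A regression on co-assayed BCL2-family reference pairs converts the normalised counts of each replicate to an apparent Kd. Each pool was mated in six replicate cultures.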

Variants are written as CDR1, CDR2 and CDR3 of the light chain (limits as in the source). Parent: KSSQSVLYESRNKNSVA, WASTRES, QQYHRLPLS. This list holds designs with at most six substitutions. Values are apparent Kd, the geometric mean of the replicates that gave a signal; lower means stronger binding. "no signal" marks a missing value. The strain was present, yet no cells mated with the target were sequenced in any replicate, which points to weak or no binding. The authors averaged sequences with at least three values out of six and counted those with two or fewer as poor binders.

Variant KLSQSWLYESRNKNSVA | NASTRLS | QDYHRLPLS [GP_Gen] showed 500 pM (6 of 6 replicates; controls 3 of 18). With KLMQSQLYESRNKNSVA | WASTRES | QQYHRLPLS [GP_HC] the result was 48 nM (5 of 6 replicates; controls 1 of 18). With KSSQSVLYEFDNKNSVA | WASTRES | QQYHRLPLS [Ctrl] the result was 16 nM (5 of 6 replicates; controls 0 of 18). Variant KSSQSVLAESRNINSVA | QASTRGS | QQYHRLPLS [Ctrl] gave 130 nM (6 of 6 replicates; controls 1 of 18). With KLPQSVLYESRNKNSVA | NASTRMV | QQYHRLPLS [GP_Gen] the result was 860 pM (6 of 6 replicates; controls 0 of 18). Variant KQSQSYHYESRNKNSVA | GASTRES | QQYHRLPLS [GP_HC] gave 1.8 nM (6 of 6 replicates; controls 2 of 18).

Variant KLQQSVPYESRNKNSVA | NASTREV | QQYHRLPLS [GP_Gen] gave 980 pM (6 of 6 replicates; controls 0 of 18). Variant KQSQSVLYESRNKNAVA | NASTRES | QQYHRLPLS [GP_HC] showed 3.7 nM (6 of 6 replicates; controls 0 of 18). Variant KLQQSVWYESRNKNSVA | NASTRES | QQYHRLPLS [GP_Gen] gave 770 pM (6 of 6 replicates; controls 1 of 18). For KSSGVYLYESRNKNSVA | GASTRES | QQYHRLPLS [GP_HC], the assay gave 780 pM (6 of 6 replicates; controls 0 of 18). For KQSQPVLQESRNKNSVA | NASTRES | QQYHRLPLS [Ctrl], the assay gave 760 pM (6 of 6 replicates; controls 1 of 18). Variant KVSQSVLMQSRNKNSVA | EASTRES | QQYHRLPLS [GP_Gen] gave 52 nM (5 of 6 replicates; controls 0 of 18).

Variant KLSQSVLYESRNKNSVA | NASQRES | QQYHRLPLS [GP_Gen] gave 1.5 nM (6 of 6 replicates; controls 1 of 18). With KFSQSVLYESRTYNSVA | NASTRES | QQYHRLPLS [GP_HC] the result was 2.1 nM (6 of 6 replicates; controls 0 of 18). Variant KSSQSWLYEDRVKNSVA | NASTRES | QQYHRLPLS [GP_HC] showed 3.9 nM (6 of 6 replicates; controls 1 of 18). Variant KLSPSVLYESRNKNSVA | NASTRES | QQYHRLPLS [GP_Gen] gave 310 pM (6 of 6 replicates; controls 0 of 18). Variant KSSLSYLYESRNKNSVA | EASTRES | QQYHRLPLM [GP_HC] gave 1.8 nM (6 of 6 replicates; controls 4 of 18). Variant KVSQSMLYESRNKNSVA | NASTRES | QQYHRLPLS [GP_Gen] showed 430 pM (6 of 6 replicates; controls 0 of 18).

For KLSGSVLYESRNKNSVA | TASTRES | QQYHRLPLS [Ctrl], the assay gave 870 pM (6 of 6 replicates; controls 1 of 18). With KMSQSVLYESRNKNSVA | WASTRES | QQYHALPES [Ctrl] the result was 110 nM (3 of 6 replicates; controls 1 of 18). With KLSQSVLMESRNKNSVA | EASTRED | QQYHRLPLS [GP_Gen] the result was 1.5 nM (6 of 6 replicates; controls 2 of 18). For KYSFSSLYESRNKNSVA | EASCREE | QQYHRLPLS [GP_Gibbs], the assay gave 4.3 nM (6 of 6 replicates; controls 1 of 18). Variant KSAQSWLYESRYKNDVA | WASTRES | QYYLRLPLS [Ctrl] showed no signal (0 of 6 replicates; controls 0 of 18). With KMSWSVLFESRNKNSVA | DASTRSS | QQYHRLPLS [GP_HC] the result was 840 pM (6 of 6 replicates; controls 0 of 18).

Variant IASQSWLYESRNKNSVA | GASTRES | QQYHRLPLI [GP_HC] showed 7.5 nM (6 of 6 replicates; controls 1 of 18).

Picked from the list: the 2 lowest averages where every replicate gave a value.

{"CDR-L1": "KLSPSVLYESRNKNSVA", "CDR-L2": "NASTRES", "CDR-L3": "QQYHRLPLS", "group": "GP_Gen", "Kd (apparent)": "310 pM", "replicates with signal": "6 of 6", "signal with controls": "0 of 18"}
{"CDR-L1": "KVSQSMLYESRNKNSVA", "CDR-L2": "NASTRES", "CDR-L3": "QQYHRLPLS", "group": "GP_Gen", "Kd (apparent)": "430 pM", "replicates with signal": "6 of 6", "signal with controls": "0 of 18"}

A sequence measured in both rounds can read differently, since the two assays cover different ranges. Of ten entries with the parent sequence, four were seen in most replicates (averages 2.2 nM to 240 nM), three in one and three in none, so single entries are noisy. Empty control strains, which show no peptide, gave a signal in 4% of pairings with all light chain designs; the median was 430 nM and 95% of these signals were weaker than 38 nM. No background was subtracted. Also given: how often the same scFv was detected with the empty control strains.